The record followed here is patent publication US10226464B2, “Small molecule NF-κB inhibitors” (ImmuneTarget, Inc., priority 2015, dated 2019).

The IC50 is the point on the concentration scale where inhibition reaches its midpoint.

This experiment has as its system NF-κB. Nature of the experiment: NF-κB GFP Assay (NFκB/Jurkat/GFP transcriptional reporter cell line). In kind it is cell-based. The conditions noted are these: Homo sapiens; NF-κB/Jurkat/GFP reporter cells, TNF-α 5 ng/ml, 24 hours; read-out: NF-KB GFP IC50. On the procedure: NFκB/Jurkat/GFP transcriptional reporter cell line was obtained from SBI System Biosciences. NF-κB/Jurkat/GFP™ Reporter cells (5×10^5 cells) were plated at a concentration of 1 million cells/ml into each well of a 24-well plate. TNF-α (5 ng/ml) was added. Compounds were added via serial dilutions to corresponding wells. After 24 hours, 100 μl of the cells were transferred to a well of a Costar® UV plate (96 well, No lid, w/ UV Transparent Flat Bottom, Corning, N.Y., Cat#3635) and the intensity of GFP fluorescence was measured (Excitation 485+/−20, Emission 528+/−20) in a Synergy™ HT Multi-Detection Microplate Reader (BioTech, Winooski, Vt.). The intensities of GFP measured were plotted against the […].

For the compound `COc1cc(OC)c2cc3c(=O)[nH]c(=S)nc-3oc2c1` [Compound 18, 6,8-dimethoxy-2-thioxo-2H-chromeno[2,3-d]pyrimidin-4(3H)-one], the IC50 was 10 µM.
